Values of other authors, collected in article PMC3792958, “Olomoucine II, but Not Purvalanol A, Is Transported by Breast Cancer Resistance Protein (ABCG2) and P-Glycoprotein (ABCB1)” (PLoS ONE, 2013).

Legend:
[1] = system: ABCG2; settings: in vitro and in situ levels; cited from earlier work
[2] = system: ABCG2; design: method as in PMID 18841444; settings: in vitro hematoporphyrin transport, Sf9 membrane vesicles; cited from earlier work
[3] = system: ABCB1; settings: cited from earlier work

CC[C@H](CO)Nc1nc(NCc2ccccc2)c2ncn(C(C)C)c2n1 [roscovitine]
inhibition of ABCG2 [1]: inhibition of ABCG2 | ABCG2 inhibition [2]: ABCG2 inhibition | ABCB1 substrate affinity [3]: high affinity ABCB1 substrate
